# The list shows a part of the results, in another mix than the full data. Calls of active or inactive are those of the source.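 How the source made its calls: active means fluorescence-ratio B-score plate-corrected deviation score at least 3 library SD below zero, with starting fluorescence score within 5 deviations; inactive means the rest.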
# Amino acid sequences for entries named in this document (tags omitted).
# UniProt Q8BHY3, whole entry: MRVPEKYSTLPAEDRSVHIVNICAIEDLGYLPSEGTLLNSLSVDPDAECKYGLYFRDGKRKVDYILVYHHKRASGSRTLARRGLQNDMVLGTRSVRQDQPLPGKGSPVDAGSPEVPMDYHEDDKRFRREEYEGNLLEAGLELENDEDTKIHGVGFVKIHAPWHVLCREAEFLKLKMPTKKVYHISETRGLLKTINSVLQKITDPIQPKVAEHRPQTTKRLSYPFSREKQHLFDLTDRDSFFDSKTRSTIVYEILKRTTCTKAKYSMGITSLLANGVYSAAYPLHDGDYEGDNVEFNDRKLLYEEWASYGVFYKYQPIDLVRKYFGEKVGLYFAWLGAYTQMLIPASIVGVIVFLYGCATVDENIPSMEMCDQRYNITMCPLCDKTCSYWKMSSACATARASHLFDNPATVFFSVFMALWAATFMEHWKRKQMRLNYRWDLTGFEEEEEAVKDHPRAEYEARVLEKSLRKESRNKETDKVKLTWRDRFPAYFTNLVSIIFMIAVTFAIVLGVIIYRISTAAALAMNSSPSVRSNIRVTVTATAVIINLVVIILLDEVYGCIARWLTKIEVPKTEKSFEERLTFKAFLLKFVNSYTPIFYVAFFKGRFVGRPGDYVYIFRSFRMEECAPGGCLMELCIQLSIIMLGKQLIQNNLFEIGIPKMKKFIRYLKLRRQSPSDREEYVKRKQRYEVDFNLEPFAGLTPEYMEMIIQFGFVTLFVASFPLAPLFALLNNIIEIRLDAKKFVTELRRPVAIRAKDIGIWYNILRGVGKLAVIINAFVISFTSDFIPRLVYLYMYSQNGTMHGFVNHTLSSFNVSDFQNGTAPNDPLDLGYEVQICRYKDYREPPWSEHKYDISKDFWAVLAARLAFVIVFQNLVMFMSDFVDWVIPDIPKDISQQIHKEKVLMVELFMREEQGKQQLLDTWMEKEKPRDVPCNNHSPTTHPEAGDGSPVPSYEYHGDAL
# Target: Anoctamin-1 (Mus musculus) (UniProt Q8BHY3)
# Assay: TMEM16A chloride channel activators or potentiators, primary screen, cell-based, HTS (AID 623877);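 on B-score: channel opened by trigger with iodide after compound preincubation; score built on the fluorescence ratio of max minus min over baseline; more negative score means more quench and so TMEM16A activation or potentiation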
# Conditions: HEK293 TMEM16A/YFP-H148Q/I152L, iodide quench fluorescence, at 10 µM; stronger effect = lower value
Compound,outcome,B-score
Cc1ccc(NP(C)(=O)Oc2ccccc2)c(C)c1 (stereo not drawn),inactive,–
COC(=O)C1(C)COP(=O)(N2CCCCCC2)OC1 (stereo not drawn),inactive,–
CCOC(=O)c1ccc(NP(C)(=O)Oc2ccccc2)cc1 (stereo not drawn),inactive,–
ClCCSc1nnc(-c2cccnc2)o1,inactive,–
Nc1ccccc1[As](=O)(O)c1ccccc1,inactive,–
O=C(O)COc1ccc([As](=O)(O)O)cc1[N+](=O)[O-],inactive,–
CS(=O)(=O)c1cc([N+](=O)[O-])c2no[n+]([O-])c2c1,inactive,–
CCOP1(=S)c2c(C)nn(CCC#N)c2N=C(c2ccccc2F)N1C (stereo not drawn),inactive,–
O=C(O)c1cccc(Nc2c([N+](=O)[O-])cc([N+](=O)[O-])cc2[N+](=O)[O-])c1,inactive,–
O=P(Nc1nccs1)(c1ccccc1)c1nc2ccccc2s1 (stereo not drawn),inactive,–
O=P(Nc1nccs1)(Oc1ccccc1)Oc1ccccc1,inactive,–
CN(C)C(=O)c1cc([N+](=O)[O-])cc2c1-c1c(cc([N+](=O)[O-])cc1[N+](=O)[O-])C2=O,inactive,–
O=[N+]([O-])c1ccc2c(c1)nnn2O,inactive,–
CN(C(=O)Cc1ccc(Cl)c(Cl)c1)[C@H]1CC[C@@]2(CCCO2)C[C@@H]1N1CCCC1,inactive,–
CC1=NCCc2c1[nH]c1ccccc21.O=[N+]([O-])c1cc([N+](=O)[O-])c(O)c([N+](=O)[O-])c1,inactive,–
N#CCCN(C(=O)COC(=O)C(O)(c1ccccc1)c1ccccc1)c1ccc(F)cc1,inactive,–
CCOP1(=S)c2c(C)nn(CCC#N)c2N=C(c2ccc(F)cc2)N1C (stereo not drawn),inactive,–
CN(C(=O)Cc1ccccc1)[C@@H]1CC[C@]2(CCCO2)C[C@H]1N1CCCC1,inactive,–
NC(=O)Nc1ccc([As](=O)(O)O)cc1,inactive,–
CCOC(=O)c1ccc(NP(C)(=O)Oc2cc(C)cc(C)c2)cc1 (stereo not drawn),inactive,–
O=[As](O)(c1cccc(O)c1)c1cccc(O)c1,inactive,–
Cc1cccc(OCC(=O)OC2CN3CCC2CC3)c1 (stereo not drawn),inactive,–
Cc1cc(C)cc(OP(C)(=O)Nc2ccc(C)cc2C)c1 (stereo not drawn),inactive,–

Compound,outcome,B-score
COc1cc(C(=O)NCC2(N3CCOCC3)CCCCC2)cc(Cl)c1OC(C)C,inactive,–
O=[As](O)(O)c1cccnc1,inactive,–
CS(=O)(=O)c1ccc(Cl)c(NC(=O)COC(=O)C(O)(c2ccccc2)c2ccccc2)c1,inactive,–
COc1ccccc1OP(C)(=O)Nc1cccc(Br)c1 (stereo not drawn),inactive,–
O=C(OC1CN2CCC1CC2)c1ccc(Cl)cc1 (stereo not drawn),inactive,–
CCOP(=O)(Nc1cccc2ccccc12)OCC,inactive,–
CCCOP(=S)(Nc1nc(N)cc(=O)[nH]1)OCCC,inactive,–
Cc1ccc(C)c(NP(C)(=O)Oc2ccccc2)c1 (stereo not drawn),inactive,–
CP(=O)(Nc1cccc(Br)c1)Oc1ccccc1 (stereo not drawn),–,active: -5.28
Cc1cc(C)cc(OP(C)(=O)Nc2ccccn2)c1 (stereo not drawn),inactive,–
Nc1cccc2c([As](=O)(O)O)cccc12,inactive,–
Cc1ccc(NCCc2c([N+](=O)[O-])cc([N+](=O)[O-])cc2[N+](=O)[O-])cc1,inactive,–
Clc1n[nH]nc1-c1nn[nH][15n]1,inactive,–
CC(C)(C)C(=O)NC(Sc1ncccn1)C(Cl)(Cl)Cl (stereo not drawn),inactive,–
CCOP(=O)(Nc1ccc(C)cn1)OCC,inactive,–
O=P1(Nc2ccccn2)COc2ccccc2OC1,inactive,–
CCC1=CC2Cc3nc4ccc(Cl)cc4c(N)c3C(C1)C2 (stereo not drawn),inactive,–
CCOP(=O)(NC(=NC(C)c1ccccc1)NC(C)c1ccccc1)OCC (stereo not drawn),inactive,–
O=[N+]([O-])c1cc([N+](=O)[O-])c(-n2nnc3ccccc32)c([N+](=O)[O-])c1,inactive,–
Cc1nc2ccc3ccccc3c2s1.O=[N+]([O-])c1cc([N+](=O)[O-])c(O)c([N+](=O)[O-])c1,inactive,–
CC1(CBr)Cn2c(nc3ccccc3c2=O)S1 (stereo not drawn),inactive,–
CC(C)/C=N\N=C(\N)N[N+](=O)[O-],inactive,–
CN(C(=O)Cc1ccc(Cl)c(Cl)c1)[C@@H]1CCCC[C@H]1N1CCCC1,inactive,–

Compound,outcome,B-score
COc1ccccc1CNC(=O)COC(=O)C(O)(c1ccccc1)c1ccccc1,inactive,–
O=[N+]([O-])c1cc([N+](=O)[O-])c(-c2cnn(-c3ccccc3)c2)c([N+](=O)[O-])c1,inactive,–
O=C(/C=C/c1ccccc1)OC1CN2CCC1CC2 (stereo not drawn),inactive,–
CCCC1OP(=O)(Nc2ccccc2)OCC1CC (stereo not drawn),inactive,–
O=[N+]([O-])c1cc([N+](=O)[O-])c(Nc2nnnn2CCO)c([N+](=O)[O-])c1,inactive,–
CN(C)C1(CNC(=O)c2ccc(S(C)(=O)=O)cc2)CCCCC1,inactive,–
CC1=C2N=C(C=C3N=C(C(C)=C4[N-][C@@](C)([C@@H]5N=C1[C@](C)(CCC(=O)NC[C@@H](C)OP(=O)([O-])O[C@H]1[C@@H](O)[C@@H](n6cnc7cc(C)c(C)cc76)O[C@@H]1CO)[C@H]5CC(N)=O)[C@@](C)(CC(N)=O)[C@@H]4CCC(N)=O)[C@@](C)(CC(N)=O)[C@@H]3CCC(N)=O)C(C)(C)[C@@H]2CCC(N)=O.[C-]#N.[Co+3],inactive,–
CCOC(=O)C(CC)C1=NC(C)(C)Cc2ccccc21.O=[N+]([O-])c1cc([N+](=O)[O-])c(O)c([N+](=O)[O-])c1 (stereo not drawn),inactive,–
COc1cc(C2NCCC3(OCCO3)C2(C)C)cc(OC)c1OC.O=[N+]([O-])c1cc([N+](=O)[O-])c(O)c([N+](=O)[O-])c1 (stereo not drawn),inactive,–
Cc1nn(-c2ccccc2)c2c1P(=O)(N1CCOCC1)N(C)C(c1ccccc1)=N2 (stereo not drawn),inactive,–
CC1CCC(C(C)C)C(OP(=O)(Nc2ccccn2)c2ccccc2)C1 (stereo not drawn),inactive,–
Cc1ccc(C(=O)OC2CN3CCC2CC3)cc1 (stereo not drawn),inactive,–
O=P1(Nc2ccc(Br)cn2)COc2ccccc2OC1,inactive,–
NS(=O)(=O)c1cccc(NC(=O)COC(=O)C(O)(c2ccccc2)c2ccccc2)c1,inactive,–
O=[As](O)(c1cccs1)c1cccs1,inactive,–
Cc1ccc(OCC(=O)OC2CN3CCC2CC3)cc1 (stereo not drawn),inactive,–
Nc1cccc([As](=O)(O)c2ccccc2)c1,inactive,–
CP(=O)(Nc1ccc(SC(F)(F)F)cc1)Oc1ccccc1 (stereo not drawn),inactive,–
CCCOc1ccc(NP(C)(=O)Oc2ccc(Cl)cc2)cc1 (stereo not drawn),inactive,–
O=P1(Nc2ncccn2)COc2ccccc2OC1,inactive,–
COc1ccccc1OP(C)(=O)Nc1c(C)cccc1C (stereo not drawn),inactive,–
CN1CCCCC1COC(=O)C1(O)c2ccccc2CCc2ccccc21 (stereo not drawn),inactive,–
